The target in this assay is T1, IKKε (Homo sapiens, UniProt Q14164).
T1 sequence (Q14164 1-716): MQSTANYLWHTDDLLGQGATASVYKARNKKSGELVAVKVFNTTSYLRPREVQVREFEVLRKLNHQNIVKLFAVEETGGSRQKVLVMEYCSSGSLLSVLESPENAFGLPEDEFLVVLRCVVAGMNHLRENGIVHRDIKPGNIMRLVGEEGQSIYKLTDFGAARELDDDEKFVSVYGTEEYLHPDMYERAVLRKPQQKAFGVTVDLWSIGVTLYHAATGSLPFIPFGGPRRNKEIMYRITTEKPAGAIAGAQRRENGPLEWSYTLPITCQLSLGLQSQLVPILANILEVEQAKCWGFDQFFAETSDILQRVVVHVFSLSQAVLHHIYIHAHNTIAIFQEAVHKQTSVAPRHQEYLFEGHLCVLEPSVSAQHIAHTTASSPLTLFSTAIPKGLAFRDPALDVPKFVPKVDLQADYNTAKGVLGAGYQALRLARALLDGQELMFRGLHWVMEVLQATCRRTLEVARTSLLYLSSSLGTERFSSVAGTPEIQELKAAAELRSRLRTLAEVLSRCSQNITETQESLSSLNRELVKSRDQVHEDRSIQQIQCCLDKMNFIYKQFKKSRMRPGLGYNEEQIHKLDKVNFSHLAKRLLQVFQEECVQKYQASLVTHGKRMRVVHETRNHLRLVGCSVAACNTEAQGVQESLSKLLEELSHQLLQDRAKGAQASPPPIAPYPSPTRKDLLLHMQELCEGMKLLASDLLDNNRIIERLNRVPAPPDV
Description: Kinase profiling panel. As to conditions: read-out: percentage of kinase activity compared with control. The format is biochemical.

SMILES strings stand for the structures.

Take `CCN(CC)CCNC(=O)c1c(C)[nH]c(/C=C2\C(=O)Nc3ccc(F)cc32)c1C` [Sunitinib, sunitinib]: the remaining activity at 0.1 µM came to 101 ± 1%.

For the origin of these results see article PMC3759966 (The Biochemical journal, 2009).
